Data published in patent publication US20030017169A1, “Controlled release systems for polymers” (priority 2000, published 2003).

Experiment: Release of HSA and IFN from precipitates in PBS/0.01% thimerosal at 37° C. (Bio-Rad Protein Assay, ELISA)
Assay type: physicochemical
Details: HSA/IFN-α012 precipitate, 40% n-propanol, pH 5.52, pH 6.13 and pH 6.31
Experimental: Protein precipitation. Proteins were precipitated at ambient temperature (about 24° C.) by one of two basic procedures: the organic addition method or the acid addition method. With the organic addition method, the protein solution was prepared in aqueous solution and an organic component added to precipitate the protein. […] Precipitation was initiated by adding an acidified solution concurrent with or after addition of organic components to the protein solution. Unless otherwise stated in the legends, deionized water was used to dilute formulation reagents. HSA stock solutions were made by diluting 25% source material to 1% final concentration, and data presented were obtained using Immuno-U.S. Human Serum Albumin.
Adjustment of pH. Because organic solvent hinders the ability to accurately measure pH, the pH specified for any formulation refers to the pH of the (aqueous) solution prior to addition of the organic component. In the case of the organic addition method, the pH of an aqueous protein solution was adjusted to the desired pH just prior to adding the organic component. […]
Wash procedures. […] If the release experiment was to begin immediately, the last harvested wash sample was labeled as the zero time sample and the resuspended preparations placed in an incubator at 37 ° C. at which temperature release was measured for all samples. […]

## HSA: Human serum albumin, carrier protein precipitated with organic solvent
  overall burst: minimal
